# Permeability data for macrocyclic peptides

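Lipid, pH, incubation time, direction and concentration are not recorded in the data file. The list need not hold all peptides of the study. Entries at the database's floor value (log10 P of -10) are not listed.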

PAMPA measures passive passage through an artificial lipid membrane.
Permeability is in 10^-6 cm/s, converted from the database's log10 values; higher is more permeable.

SMILES | PAMPA (10^-6 cm/s)
CC(=O)N1CCC[C@@H]1C(=O)N(C)[C@@H](CC(C)C)C(=O)N[C@@H]1C(=O)N(C)[C@H](CC(C)C)C(=O)N[C@H](CC(C)C)C(=O)N[C@H](CC(C)C)C(=O)N[C@H](C)C(=O)N[C@H](CC(C)C)C(=O)N2CCC[C@@H]2C(=O)O[C@@H]1C | 0.19
CC(=O)N1CCC[C@@H]1C(=O)N(C)[C@@H](CC(C)C)C(=O)N[C@@H]1C(=O)N[C@H](CC(C)C)C(=O)N[C@@H](CC(C)C)C(=O)N(C)[C@@H](CC(C)C)C(=O)N[C@@H](C)C(=O)N[C@H](CC(C)C)C(=O)N2CCC[C@H]2C(=O)O[C@@H]1C | 0.78
CC(=O)N1CCC[C@H]1C(=O)N(C)[C@@H](CC(C)C)C(=O)N[C@@H]1C(=O)N(C)[C@H](CC(C)C)C(=O)N[C@@H](CC(C)C)C(=O)N(C)[C@H](CC(C)C)C(=O)N(C)[C@H](C)C(=O)N[C@H](CC(C)C)C(=O)N2CCC[C@@H]2C(=O)O[C@@H]1C | 1.3
CC(=O)N1CCC[C@@H]1C(=O)N(C)[C@H](CC(C)C)C(=O)N[C@@H]1C(=O)N(C)[C@H](CC(C)C)C(=O)N(C)[C@H](CC(C)C)C(=O)N[C@@H](CC(C)C)C(=O)N(C)[C@H](C)C(=O)N[C@@H](CC(C)C)C(=O)N2CCC[C@H]2C(=O)O[C@@H]1C | 1.4
CC(=O)N1CCC[C@@H]1C(=O)N(C)[C@H](CC(C)C)C(=O)N[C@@H]1C(=O)N[C@H](CC(C)C)C(=O)N[C@@H](CC(C)C)C(=O)N(C)[C@H](CC(C)C)C(=O)N(C)[C@@H](C)C(=O)N[C@@H](CC(C)C)C(=O)N2CCC[C@H]2C(=O)O[C@@H]1C | 2.9
CC(=O)N1CCC[C@H]1C(=O)N[C@@H]1C(=O)N(C)[C@H](CC(C)C)C(=O)N(C)[C@H](CC(C)C)C(=O)N(C)[C@@H](CC(C)C)C(=O)N(C)[C@@H](CC(C)C)C(=O)N(C)[C@H](C)C(=O)N[C@@H](CC(C)C)C(=O)N2CCC[C@@H]2C(=O)O[C@@H]1C | 8.3
CC(=O)N1CCC[C@@H]1C(=O)N(C)[C@H](CC(C)C)C(=O)N[C@@H]1C(=O)N(C)[C@@H](CC(C)C)C(=O)N(C)[C@H](CC(C)C)C(=O)N(C)[C@@H](CC(C)C)C(=O)N[C@@H](C)C(=O)N[C@H](CC(C)C)C(=O)N2CCC[C@H]2C(=O)O[C@@H]1C | 1.1
CC(=O)N1CCC[C@H]1C(=O)N[C@@H]1C(=O)N(C)[C@H](CC(C)C)C(=O)N[C@H](CC(C)C)C(=O)N[C@@H](CC(C)C)C(=O)N(C)[C@@H](CC(C)C)C(=O)N[C@@H](C)C(=O)N[C@@H](CC(C)C)C(=O)N2CCC[C@@H]2C(=O)O[C@@H]1C | 1
CC(=O)N1CCC[C@H]1C(=O)N(C)[C@@H](CC(C)C)C(=O)N[C@@H]1C(=O)N[C@H](CC(C)C)C(=O)N[C@H](CC(C)C)C(=O)N(C)[C@@H](CC(C)C)C(=O)N(C)[C@@H](C)C(=O)N[C@@H](CC(C)C)C(=O)N2CCC[C@H]2C(=O)O[C@@H]1C | 1.4
CC(=O)N1CCC[C@@H]1C(=O)N(C)[C@@H](CC(C)C)C(=O)N[C@@H]1C(=O)N(C)[C@@H](CC(C)C)C(=O)N(C)[C@@H](CC(C)C)C(=O)N[C@@H](CC(C)C)C(=O)N(C)[C@H](C)C(=O)N[C@@H](CC(C)C)C(=O)N2CCC[C@@H]2C(=O)O[C@@H]1C | 3.9
CC(=O)N1CCC[C@@H]1C(=O)N(C)[C@@H](CC(C)C)C(=O)N[C@@H]1C(=O)N[C@H](CC(C)C)C(=O)N(C)[C@@H](CC(C)C)C(=O)N(C)[C@H](CC(C)C)C(=O)N(C)[C@@H](C)C(=O)N[C@@H](CC(C)C)C(=O)N2CCC[C@H]2C(=O)O[C@@H]1C | 4.3
CC(=O)N1CCC[C@@H]1C(=O)N(C)[C@H](CC(C)C)C(=O)N[C@@H]1C(=O)N[C@H](CC(C)C)C(=O)N(C)[C@H](CC(C)C)C(=O)N(C)[C@@H](CC(C)C)C(=O)N[C@@H](C)C(=O)N[C@H](CC(C)C)C(=O)N2CCC[C@H]2C(=O)O[C@@H]1C | 0.001
CC(=O)N1CCC[C@H]1C(=O)N[C@@H]1C(=O)N[C@H](CC(C)C)C(=O)N(C)[C@H](CC(C)C)C(=O)N[C@@H](CC(C)C)C(=O)N(C)[C@@H](CC(C)C)C(=O)N(C)[C@@H](C)C(=O)N[C@@H](CC(C)C)C(=O)N2CCC[C@@H]2C(=O)O[C@@H]1C | 9.8
CC(=O)N[C@@H]1C(=O)N2CCC[C@H]2C(=O)N(C)[C@H](CC(C)C)C(=O)N(C)[C@@H](CC(C)C)C(=O)N(C)[C@H](CC(C)C)C(=O)N(C)[C@@H](CC(C)C)C(=O)N(C)[C@@H](C)C(=O)N[C@@H](CC(C)C)C(=O)N2CCC[C@@H]2C(=O)O[C@@H]1C | 2.9
CC(=O)N1CCC[C@H]1C(=O)N[C@@H]1C(=O)N[C@H](CC(C)C)C(=O)N[C@@H](CC(C)C)C(=O)N(C)[C@@H](CC(C)C)C(=O)N[C@H](CC(C)C)C(=O)N(C)[C@@H](C)C(=O)N[C@@H](CC(C)C)C(=O)N2CCC[C@@H]2C(=O)O[C@@H]1C | 12
CC(=O)N1CCC[C@H]1C(=O)N(C)[C@H](CC(C)C)C(=O)N[C@@H]1C(=O)N[C@H](CC(C)C)C(=O)N[C@@H](CC(C)C)C(=O)N(C)[C@@H](CC(C)C)C(=O)N(C)[C@H](C)C(=O)N[C@@H](CC(C)C)C(=O)N2CCC[C@H]2C(=O)O[C@@H]1C | 7.1
CC(=O)N1CCC[C@@H]1C(=O)N(C)[C@@H](CC(C)C)C(=O)N[C@@H]1C(=O)N(C)[C@H](CC(C)C)C(=O)N(C)[C@@H](CC(C)C)C(=O)N(C)[C@H](CC(C)C)C(=O)N[C@@H](C)C(=O)N[C@@H](CC(C)C)C(=O)N2CCC[C@@H]2C(=O)O[C@@H]1C | 7.2
CC(=O)N1CCC[C@@H]1C(=O)N(C)[C@@H](CC(C)C)C(=O)N[C@@H]1C(=O)N(C)[C@@H](CC(C)C)C(=O)N[C@@H](CC(C)C)C(=O)N[C@@H](CC(C)C)C(=O)N(C)[C@@H](C)C(=O)N[C@@H](CC(C)C)C(=O)N2CCC[C@H]2C(=O)O[C@@H]1C | 0.18
CC(=O)N1CCC[C@H]1C(=O)N[C@@H]1C(=O)N(C)[C@H](CC(C)C)C(=O)N(C)[C@@H](CC(C)C)C(=O)N(C)[C@H](CC(C)C)C(=O)N[C@@H](CC(C)C)C(=O)N(C)[C@H](C)C(=O)N[C@@H](CC(C)C)C(=O)N2CCC[C@@H]2C(=O)O[C@@H]1C | 11

A selection of 2 entries from above:

| SMILES | PAMPA (10^-6 cm/s) |
|---|---|
| CC(=O)N1CCC[C@H]1C(=O)N[C@@H]1C(=O)N[C@H](CC(C)C)C(=O)N(C)[C@H](CC(C)C)C(=O)N[C@@H](CC(C)C)C(=O)N(C)[C@@H](CC(C)C)C(=O)N(C)[C@@H](C)C(=O)N[C@@H](CC(C)C)C(=O)N2CCC[C@@H]2C(=O)O[C@@H]1C | 9.8 |
| CC(=O)N1CCC[C@@H]1C(=O)N(C)[C@@H](CC(C)C)C(=O)N[C@@H]1C(=O)N(C)[C@@H](CC(C)C)C(=O)N(C)[C@@H](CC(C)C)C(=O)N[C@@H](CC(C)C)C(=O)N(C)[C@H](C)C(=O)N[C@@H](CC(C)C)C(=O)N2CCC[C@@H]2C(=O)O[C@@H]1C | 3.9 |

Collected by the curators of CycPeptMPDB (Li et al. 2023) from Kelly et al. 2021, doi:10.1021/jacs.0c06115.